# Source: article PMC3288537 (ACS Chemical Biology, 2011)
# Amino acid sequences for entries named in this document (tags omitted). A change or cut given only in a name is not applied to a line headed by its entry. Residues count along the entry.
# UniProt P29350: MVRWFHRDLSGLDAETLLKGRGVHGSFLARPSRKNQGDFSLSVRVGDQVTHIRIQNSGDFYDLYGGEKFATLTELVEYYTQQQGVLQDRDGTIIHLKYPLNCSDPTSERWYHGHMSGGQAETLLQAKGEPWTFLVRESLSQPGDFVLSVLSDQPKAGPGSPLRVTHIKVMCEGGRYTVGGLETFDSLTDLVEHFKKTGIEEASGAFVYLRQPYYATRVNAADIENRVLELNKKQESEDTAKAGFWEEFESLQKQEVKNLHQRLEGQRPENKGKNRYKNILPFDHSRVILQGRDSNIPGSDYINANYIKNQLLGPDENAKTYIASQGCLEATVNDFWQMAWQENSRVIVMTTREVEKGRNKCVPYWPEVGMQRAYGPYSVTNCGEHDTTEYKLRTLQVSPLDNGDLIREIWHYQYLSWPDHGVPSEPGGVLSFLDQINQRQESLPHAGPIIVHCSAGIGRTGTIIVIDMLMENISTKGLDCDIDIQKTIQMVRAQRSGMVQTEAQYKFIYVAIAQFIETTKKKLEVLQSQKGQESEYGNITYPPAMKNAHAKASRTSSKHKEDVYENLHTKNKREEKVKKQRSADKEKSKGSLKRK
# UniProt P10586, 30-1907, species assumed: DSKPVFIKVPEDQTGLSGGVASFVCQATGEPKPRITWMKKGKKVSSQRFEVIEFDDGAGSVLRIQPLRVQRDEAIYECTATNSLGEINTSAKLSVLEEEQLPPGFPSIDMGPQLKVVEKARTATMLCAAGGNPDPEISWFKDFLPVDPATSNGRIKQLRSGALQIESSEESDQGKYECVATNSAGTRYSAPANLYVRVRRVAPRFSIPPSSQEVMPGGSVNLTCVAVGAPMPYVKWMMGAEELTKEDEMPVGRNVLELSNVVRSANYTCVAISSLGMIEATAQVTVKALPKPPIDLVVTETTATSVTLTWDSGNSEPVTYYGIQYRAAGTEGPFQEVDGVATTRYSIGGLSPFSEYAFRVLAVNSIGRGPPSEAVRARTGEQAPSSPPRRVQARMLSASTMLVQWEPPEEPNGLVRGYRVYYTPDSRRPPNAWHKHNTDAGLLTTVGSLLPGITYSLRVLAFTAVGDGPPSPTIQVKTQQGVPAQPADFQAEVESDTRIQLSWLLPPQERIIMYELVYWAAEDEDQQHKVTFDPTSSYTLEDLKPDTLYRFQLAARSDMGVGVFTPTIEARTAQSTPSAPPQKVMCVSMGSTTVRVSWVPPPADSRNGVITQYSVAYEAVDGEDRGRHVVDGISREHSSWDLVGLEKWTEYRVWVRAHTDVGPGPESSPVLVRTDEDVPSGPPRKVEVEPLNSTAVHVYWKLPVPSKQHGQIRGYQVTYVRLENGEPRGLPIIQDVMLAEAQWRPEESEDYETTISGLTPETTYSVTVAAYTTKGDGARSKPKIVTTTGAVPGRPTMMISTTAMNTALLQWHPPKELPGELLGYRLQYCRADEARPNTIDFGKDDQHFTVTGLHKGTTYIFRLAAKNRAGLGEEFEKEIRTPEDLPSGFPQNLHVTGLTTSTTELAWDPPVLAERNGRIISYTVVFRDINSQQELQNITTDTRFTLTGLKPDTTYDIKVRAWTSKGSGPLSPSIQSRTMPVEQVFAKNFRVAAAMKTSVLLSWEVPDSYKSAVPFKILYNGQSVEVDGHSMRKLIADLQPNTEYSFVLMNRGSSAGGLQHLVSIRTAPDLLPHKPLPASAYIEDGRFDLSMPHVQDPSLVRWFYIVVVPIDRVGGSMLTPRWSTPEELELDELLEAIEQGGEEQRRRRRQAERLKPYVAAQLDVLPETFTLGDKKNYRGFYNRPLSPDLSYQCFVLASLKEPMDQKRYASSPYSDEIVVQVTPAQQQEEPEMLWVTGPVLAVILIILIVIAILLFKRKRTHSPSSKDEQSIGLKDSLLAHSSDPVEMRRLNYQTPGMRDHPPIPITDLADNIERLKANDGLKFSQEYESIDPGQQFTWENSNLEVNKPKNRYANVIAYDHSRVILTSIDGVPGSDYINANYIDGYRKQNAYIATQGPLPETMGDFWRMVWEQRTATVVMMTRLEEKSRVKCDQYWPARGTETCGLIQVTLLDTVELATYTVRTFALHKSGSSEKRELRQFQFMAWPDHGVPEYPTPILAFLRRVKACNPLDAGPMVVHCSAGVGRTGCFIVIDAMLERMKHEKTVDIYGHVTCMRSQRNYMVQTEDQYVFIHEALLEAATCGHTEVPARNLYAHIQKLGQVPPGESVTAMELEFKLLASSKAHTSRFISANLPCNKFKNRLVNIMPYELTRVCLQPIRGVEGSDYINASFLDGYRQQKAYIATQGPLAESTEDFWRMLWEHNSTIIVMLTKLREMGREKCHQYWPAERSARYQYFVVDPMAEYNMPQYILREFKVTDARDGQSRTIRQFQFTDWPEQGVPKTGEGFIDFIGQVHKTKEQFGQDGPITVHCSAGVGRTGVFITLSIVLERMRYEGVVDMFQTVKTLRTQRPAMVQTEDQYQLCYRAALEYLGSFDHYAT
# Columns and labels:
# MKP-3 = molecular target: T1, MKP-3 (Homo sapiens, UniProt Q16828); assay: Dose-response OMFP phosphatase assay, MKP-3; assay type: biochemical; settings: ratio of IC50 values
# T1 sequence (Q16828 1-381): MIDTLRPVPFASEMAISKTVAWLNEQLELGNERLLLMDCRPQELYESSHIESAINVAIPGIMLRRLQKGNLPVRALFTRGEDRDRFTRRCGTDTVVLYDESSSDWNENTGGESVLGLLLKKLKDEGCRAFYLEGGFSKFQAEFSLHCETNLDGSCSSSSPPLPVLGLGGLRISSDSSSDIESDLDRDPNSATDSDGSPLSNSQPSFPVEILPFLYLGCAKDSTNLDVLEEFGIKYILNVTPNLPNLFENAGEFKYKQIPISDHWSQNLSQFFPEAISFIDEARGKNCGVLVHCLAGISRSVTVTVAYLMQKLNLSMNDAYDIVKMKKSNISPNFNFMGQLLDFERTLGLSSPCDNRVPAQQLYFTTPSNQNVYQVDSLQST
# PTP-SL = molecular target: T2, PTP-SL (Homo sapiens, UniProt Q15256); assay: Dose-response OMFP phosphatase assay, PTP-SL; assay type: biochemical; settings: ratio of IC50 values
# T2 sequence (Q15256 22-657): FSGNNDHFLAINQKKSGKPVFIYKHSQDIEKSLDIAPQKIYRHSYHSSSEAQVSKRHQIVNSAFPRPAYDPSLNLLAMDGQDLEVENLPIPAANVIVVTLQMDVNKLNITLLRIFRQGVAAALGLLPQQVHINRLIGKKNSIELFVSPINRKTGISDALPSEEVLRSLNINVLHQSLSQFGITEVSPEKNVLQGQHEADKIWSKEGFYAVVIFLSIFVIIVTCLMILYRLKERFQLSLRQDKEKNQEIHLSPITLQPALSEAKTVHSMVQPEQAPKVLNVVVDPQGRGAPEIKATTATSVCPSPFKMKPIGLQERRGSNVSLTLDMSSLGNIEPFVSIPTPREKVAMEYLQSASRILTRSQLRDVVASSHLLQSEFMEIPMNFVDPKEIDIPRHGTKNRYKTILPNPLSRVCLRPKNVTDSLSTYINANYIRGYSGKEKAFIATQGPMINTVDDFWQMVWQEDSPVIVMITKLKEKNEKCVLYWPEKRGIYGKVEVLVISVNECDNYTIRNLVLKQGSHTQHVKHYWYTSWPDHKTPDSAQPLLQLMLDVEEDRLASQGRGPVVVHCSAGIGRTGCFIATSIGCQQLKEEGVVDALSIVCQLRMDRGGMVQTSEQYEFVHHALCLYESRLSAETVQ
# SHP1 = SHP1 (Homo sapiens, UniProt P29350); assay: Dose-response OMFP phosphatase assay, SHP1; assay type: biochemical; settings: ratio of IC50 values
# Method in brief: (§1)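 Ten-point 2-fold dilution series of test compound prepared in DMSO. Fluorescence (ex 485/em 528 nm) read in kinetic mode over 10 min; progress-curve slopes taken as activity. IC50 by nonlinear regression (sigmoidal, variable slope).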
# CD45 = molecular target: T3, CD45 (Homo sapiens, UniProt P08575); assay: Dose-response OMFP phosphatase assay, CD45; assay type: biochemical; settings: ratio of IC50 values
# T3 sequence (P08575 26-1306): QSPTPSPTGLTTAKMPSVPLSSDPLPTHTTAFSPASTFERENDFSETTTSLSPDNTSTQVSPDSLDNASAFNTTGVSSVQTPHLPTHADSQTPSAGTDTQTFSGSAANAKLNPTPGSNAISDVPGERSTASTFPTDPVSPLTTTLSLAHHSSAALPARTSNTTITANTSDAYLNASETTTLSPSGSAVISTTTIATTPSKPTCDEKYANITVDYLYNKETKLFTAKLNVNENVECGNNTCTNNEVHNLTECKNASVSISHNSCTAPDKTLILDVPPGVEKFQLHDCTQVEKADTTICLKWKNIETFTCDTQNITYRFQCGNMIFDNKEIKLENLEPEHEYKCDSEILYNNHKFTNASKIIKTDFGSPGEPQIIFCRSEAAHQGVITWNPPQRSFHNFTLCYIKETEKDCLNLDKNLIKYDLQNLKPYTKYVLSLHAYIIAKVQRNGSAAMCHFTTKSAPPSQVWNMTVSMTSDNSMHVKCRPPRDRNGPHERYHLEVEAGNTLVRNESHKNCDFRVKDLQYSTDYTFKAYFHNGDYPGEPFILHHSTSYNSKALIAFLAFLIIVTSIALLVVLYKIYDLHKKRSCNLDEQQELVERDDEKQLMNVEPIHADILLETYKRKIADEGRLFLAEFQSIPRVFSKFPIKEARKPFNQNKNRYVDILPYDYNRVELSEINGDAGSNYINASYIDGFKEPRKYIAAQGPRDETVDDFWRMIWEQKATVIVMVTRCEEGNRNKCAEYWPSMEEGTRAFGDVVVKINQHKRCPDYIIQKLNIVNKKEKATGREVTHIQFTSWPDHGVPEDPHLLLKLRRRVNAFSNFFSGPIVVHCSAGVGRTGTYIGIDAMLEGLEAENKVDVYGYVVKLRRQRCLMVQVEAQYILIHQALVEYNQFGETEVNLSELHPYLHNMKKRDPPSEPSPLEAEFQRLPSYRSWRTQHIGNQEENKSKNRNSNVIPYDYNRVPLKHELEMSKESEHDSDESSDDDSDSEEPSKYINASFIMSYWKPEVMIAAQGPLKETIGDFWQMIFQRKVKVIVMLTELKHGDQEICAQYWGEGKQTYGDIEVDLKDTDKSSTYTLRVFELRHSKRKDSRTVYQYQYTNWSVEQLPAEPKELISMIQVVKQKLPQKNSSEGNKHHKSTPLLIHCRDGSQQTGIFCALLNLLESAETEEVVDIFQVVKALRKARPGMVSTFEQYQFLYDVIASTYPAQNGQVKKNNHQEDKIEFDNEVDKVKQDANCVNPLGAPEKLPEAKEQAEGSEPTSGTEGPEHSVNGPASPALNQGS
# Method in brief: as §1
# LAR = LAR (Homo sapiens, UniProt P10586); assay: Dose-response OMFP phosphatase assay, LAR; assay type: biochemical; settings: ratio of IC50 values
# Method in brief: as §1
# [1] = molecular target: T4, HePTP-DM (K105A/T106A double mutant) (Homo sapiens, UniProt P35236, K126A/T127A); assay: Dose-response OMFP phosphatase assay, HePTP K105A/T106A double mutant; assay type: biochemical
# T4 sequence (P35236 22-360 K126A/T127A limits assumed): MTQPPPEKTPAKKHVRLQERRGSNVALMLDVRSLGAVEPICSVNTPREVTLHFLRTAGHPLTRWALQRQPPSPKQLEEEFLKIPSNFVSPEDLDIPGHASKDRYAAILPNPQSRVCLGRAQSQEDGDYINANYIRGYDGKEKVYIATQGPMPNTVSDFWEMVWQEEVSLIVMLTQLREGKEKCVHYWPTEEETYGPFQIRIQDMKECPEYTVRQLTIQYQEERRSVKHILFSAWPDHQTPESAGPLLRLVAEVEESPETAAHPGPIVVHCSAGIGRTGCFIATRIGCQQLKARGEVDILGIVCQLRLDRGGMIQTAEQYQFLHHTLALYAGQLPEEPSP
# [2] = Metabolic stability in rat liver microsomes with NADPH; assay type: in vitro ADME; settings: for microsomal stability (compound remaining): NADPH
structure (smiles),measurement,setting,value
O=C(O)c1ccccc1-c1ccc(/C=c2\sc3nc4cc(Br)cnc4n3c2=O)o1 [Compound 1],selectivity for HePTP over MKP-3,MKP-3,25 fold
same,selectivity for HePTP over PTP-SL,PTP-SL,5 fold
same,selectivity for HePTP over SHP1,SHP1,12 fold
same,selectivity for HePTP over CD45,CD45,15 fold
same,selectivity for HePTP over LAR,LAR,348 fold
same,fold less active against HePTP-DM compared to wt HePTP,[1],31 fold
same,metabolites in microsomal stability assay,[2]; LC/MS,no major metabolite
same,microsomal stability (compound remaining),"[2]; rat liver microsomes, after 15 min",86.2 ± 2.7%
same,microsomal stability (compound remaining),"[2]; rat liver microsomes, after 30 min",71.0 ± 2.9%
same,microsomal stability (compound remaining),"[2]; rat liver microsomes, after 45 min",53.0 ± 1.4%
same,microsomal half-life t1/2,"[2]; rat liver microsomes, first order kinetics assumed",50 min
